Screening data deposited in PubChem BioAssay by National Center for Advancing Translational Sciences (NCATS).
An excerpt weighted towards active compounds, which were near 2.5% of everything screened.
miR-21 reporter – raises the signal of a miR-21 reporter; HeLa miR-21 FLuc reporter, luciferase, 48 h; Potency, µM (top dose mostly 38.3 µM), for inactives: at the highest dose reporter change, positive = more light; AID 2288; 340,000 tested, under 10 active; active = well fitted rising curve with a large enough effect; inconclusive = small, poorly fitted or top-dose-only effect; inactive = no such curve, though single readings can be large or run the other way;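 note: % of control where 0% means no effect; miR-21 action dims this reporter so a rising signal means less miR-21 action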
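HeLa miR-21-FLuc reporter line, endogenous miR-21; 2000 cells/well in DMEM/10% FBS; compound titration up to ~40uM final, 48 h, 37 degree Celsius; luciferase detection reagent, 15 min lysis, CCD luminescence.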
TrxR1 substrate – substrates of rat thioredoxin reductase 1 | Potency, µM (titrated, usually from 114 µM), without a hit: at the top dose activity change, negative = substrate turnover | O89049 | purified TrxR1 substrate turnover, NADPH consumption readout | 390,000 tested, 0.01% active; also: potency is read from the fitted curve at half-maximal effect; % is scaled to controls: 0 for no effect and ±100 for the full control effect; nearly all actives have a fitted effect of over 50% in size
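Rat TrxR1, dispensed at 90 nM, was prereduced with 400 uM NADPH (final) for 5 min at ~22 deg C, then incubated with compound 15 min before 400 uM selenite. A first-read NADPH fluorescence drop versus no-compound background flagged substrates.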
TrxR1 inh – rat TrxR1 inhibition; O89049; Potency, µM (titrated, usually from 114 µM), for inactives: at the highest dose activity change, negative = inhibition, most hits filed as inhibitors; recombinant rTrxR1, NADPH fluorescence consumption, selenite substrate; 390,000 tested, 1% active; also: potency is read from the fitted curve at half-maximal effect; % is scaled to controls: 0 for no effect and ±100 for the full control effect; nearly all actives have a fitted effect of over 65% in size
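Rat TrxR1 (90 nM in the dispensed reagent) was pre-reduced with 400 uM NADPH for 5 min at room temperature, then incubated with compound for 15 min. After 400 uM selenite was added, NADPH fluorescence (Ex 340/Em 450 nm) was followed for 8 min.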
Anesthetic bind – binds horse apoferritin like a general anesthetic; P02791; apoferritin/1-aminoanthracene competitive binding, fluorescence; Potency, µM (titrated, usually from 77.5 µM), inactives show at the top dose activity change, negative = displacement, most hits filed as inhibitors; 350,000 tested, 0.074% active; AID 485281; also: potency is read from the fitted curve at half-maximal effect; % is scaled to controls: 0 for no effect and ±100 for the full control effect; nearly all actives have a fitted effect of over 20% in size
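Steps: apoferritin (10 uM) was premixed with half-saturated 1-AMA in PBS, compounds were pin-transferred, plates stood 10 min at room temperature, fluorescence was read at 380/535 nm, and curves were fitted with a Hill equation.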
ClpP mod – qHTS Assay for Activators of ClpP; ATP-dependent Clp protease proteolytic subunit (Bacillus subtilis (strain 168)), P80244; purified B. subtilis ClpP, FRET peptide cleavage, 20 min; Potency, µM (top dose mostly 57.5 µM), for the others: top-dose activity change, negative = active; 340,000 tested, 1.9% active; AID 651965, 2013; active = well fitted falling curve with a large enough effect; inconclusive = small, poorly fitted or top-dose-only effect; inactive = no such curve, though single readings can be large or run the other way; also: potency is read from the fitted curve at half-maximal effect; the source files actives as falling curves though it sought activators and does not explain the sign; nearly all actives have a fitted effect of over 65% in size
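ClpP 10 microg/mL final, pH 8 Tris/KCl buffer with BSA, glycerol, Tween-20; compound pinned in; FRET-FV substrate; RT 20 min; Ex320/Em430; ΔFRET vs ADEP 5.8 microM, DMSO, no enzyme.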
Active calls of the source: *; ! = repeats disagree; [ ] = remark or other dose. Unless noted, calls follow the shape of the dose curve; as a rule, active = well fitted curve in the direction sought with a large enough effect; inconclusive = small, poorly fitted or top-dose-only effect, or another doubt; inactive = no such curve, though single readings can be large; an effect the other way counts as inactive or inconclusive.

The chains behind the UniProt entries cited, without tags or fusion partners.
ATP-dependent Clp protease proteolytic subunit (Bacillus subtilis (strain 168)), P80244, UniProt P80244, whole entry, looked up: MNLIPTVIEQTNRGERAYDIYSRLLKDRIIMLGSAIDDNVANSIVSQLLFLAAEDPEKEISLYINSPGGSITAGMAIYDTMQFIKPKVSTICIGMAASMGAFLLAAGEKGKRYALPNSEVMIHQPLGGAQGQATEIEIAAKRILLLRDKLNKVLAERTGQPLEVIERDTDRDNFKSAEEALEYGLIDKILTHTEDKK

Results for CC(C)c1ccc(C2c3c(-c4ccccc4O)n[nH]c3C(=O)N2CCc2ccccc2)cc1 (configuration not stated) ?
miR-21 reporter: inconclusive; TrxR1 substrate: 6%; TrxR1 inh: 17%; Anesthetic bind: 6%; ClpP mod: -5%

Results for O=C(O)c1ccccc1NS(=O)(=O)c1ccc(NNC(=S)Nc2ccc(OC(F)F)cc2)c([N+](=O)[O-])c1 ?
miR-21 reporter: 14%; TrxR1 substrate: -17%; TrxR1 inh: 50µM*; Anesthetic bind: -17%

What do the screens show for `Cc1ccc(NC(=S)NNc2ccc([N+](=O)[O-])cc2S(=O)(=O)Nc2ccccc2C(=O)O)cc1C`?
miR-21 reporter: 0%; TrxR1 substrate: -10%; TrxR1 inh: inconclusive; Anesthetic bind: 4%; ClpP mod: -2%

How did N#Cc1cc([N+](=O)[O-])ccc1NC(=O)COC(=O)CCC1CCCCC1 do in these assays?
miR-21 reporter: 1%; Anesthetic bind: 32µM*

How did CCCC(=O)OCC(=O)Nc1ccc([N+](=O)[O-])cc1C#N do in these assays?
miR-21 reporter: 4%; TrxR1 substrate: 3%; TrxR1 inh: 18%; Anesthetic bind: -2%; ClpP mod: -1%

Results for Clc1ccc(/C=N/Nc2ncnc3ccccc23)cc1Cl ?
miR-21 reporter: -31%; TrxR1 substrate: -5%; TrxR1 inh: 6%; Anesthetic bind: inconclusive; ClpP mod: 28µM*

Results for Fc1ccccc1/C=N/Nc1ncnc2ccccc12 ?
miR-21 reporter: -17%; TrxR1 substrate: -12%; TrxR1 inh: 2%; Anesthetic bind: -18%

How did COc1cccc(N2CCN(C(=O)Cn3c(-c4cccs4)cc4ccccc43)CC2)c1 do in these assays?
miR-21 reporter: 1%; TrxR1 substrate: 40%; TrxR1 inh: 37%; Anesthetic bind: 51%; ClpP mod: 16µM*

Results for CCN1CCN(C(=O)Cn2c(-c3cccs3)cc3ccccc32)CC1 ?
miR-21 reporter: -9%; TrxR1 substrate: 71%; TrxR1 inh: 14%; Anesthetic bind: 0%; ClpP mod: 32µM*

What do the screens show for `CCN1CCN(C(=O)Cn2c(=O)sc3ccccc32)CC1`?
miR-21 reporter: -8%; TrxR1 substrate: 6%; TrxR1 inh: 18%; Anesthetic bind: -2%; ClpP mod: 0%

How did Cc1ccc(-c2cc(N)n(-c3ccc(C)cc3)n2)cc1 do in these assays?
miR-21 reporter: -67%; TrxR1 substrate: 1%[57.1 µM]; TrxR1 inh: 13%[57.1 µM]; Anesthetic bind: -8%; ClpP mod: -1%

What do the screens show for `COc1ccc(-c2cc(-c3ccccc3)nc(Cl)n2)cc1OC`?
miR-21 reporter: 18%; TrxR1 substrate: 101%; TrxR1 inh: 167%; Anesthetic bind: 5%

How did Cc1ccc(-c2cc(N)n3nc(-c4ccc(C)cc4)cc3n2)cc1 do in these assays?
miR-21 reporter: -6%; TrxR1 substrate: 22%[57.1 µM]; TrxR1 inh: 53%[57.1 µM]; Anesthetic bind: 92%; ClpP mod: 13µM*!

What do the screens show for `Cc1cc(C)n2nc(-c3ccc(Br)cc3)cc2n1`?
miR-21 reporter: -55%; TrxR1 substrate: 5%; TrxR1 inh: 9%; Anesthetic bind: -9%; ClpP mod: 5%

How did Cc1cc(N)n2nc(-c3ccccc3)cc2n1 do in these assays?
miR-21 reporter: -12%; TrxR1 substrate: 43%; TrxR1 inh: 5%; Anesthetic bind: 3%; ClpP mod: 28µM*

Results for Cc1ccc(-c2cc3nc(-c4ccc(Br)cc4)cc(N)n3n2)cc1 ?
miR-21 reporter: -16%; TrxR1 substrate: 24%; TrxR1 inh: 7%; Anesthetic bind: 5%; ClpP mod: 28µM*

Results for Cc1ccc(-c2cc(-c3ccccc3)nc(Cl)n2)cc1 ?
miR-21 reporter: -4%; TrxR1 substrate: 11%[57.1 µM]; TrxR1 inh: 18%[57.1 µM]; Anesthetic bind: -15%; ClpP mod: 28µM*

Results for Cc1ccc(-c2cc3nc(-c4ccccc4)cc(NCCCO)n3n2)cc1 ?
ClpP mod: 4%

What do the screens show for `Cc1ccc(-c2cc3nc(-c4ccccc4)cc(N)n3n2)cc1`?
miR-21 reporter: -43%; TrxR1 substrate: 21%; TrxR1 inh: 1%; Anesthetic bind: 14%; ClpP mod: 25µM*

How did CC(=O)N1c2ccc(S(=O)(=O)NCC3CCC(C(=O)Nc4cc(C)ccc4C)CC3)cc2CC1C (configuration not stated) do in these assays?
miR-21 reporter: 23%; TrxR1 substrate: 2%; TrxR1 inh: 9%; Anesthetic bind: -11%; ClpP mod: 1%

Results for CCC(=O)Nc1ccc(-c2cc(-c3ccccc3)nc(-c3ccc(NC(=O)CC)cc3)n2)cc1 ?
miR-21 reporter: -5%; TrxR1 substrate: 23%; TrxR1 inh: 5%; Anesthetic bind: -14%; ClpP mod: inconclusive

How did CC(=O)Nc1ccc(-c2cc(-c3ccc(NC(C)=O)cc3)nc(-c3ccc(NC(C)=O)cc3)n2)cc1 do in these assays?
miR-21 reporter: 0%; TrxR1 substrate: 78%; TrxR1 inh: 45%; Anesthetic bind: 1%; ClpP mod: 5.6µM*

How did CC(=O)Nc1ccc(-c2cc(-c3ccccc3)nc(-c3ccccc3)n2)cc1 do in these assays?
miR-21 reporter: -5%; TrxR1 substrate: -7%; TrxR1 inh: 7%[57.1 µM]; Anesthetic bind: -1%; ClpP mod: 28µM*

Results for CCOc1ccc(CNC(=O)c2cc3c(=O)n(Cc4cccs4)ccc3nc2C)cc1 ?
miR-21 reporter: -3%; TrxR1 substrate: 15%[57.1 µM]; TrxR1 inh: 16%[57.1 µM]; Anesthetic bind: 3%; ClpP mod: 4%

How did CCCOc1cccc(NC(=O)OC2CCN(C)CC2)c1 do in these assays?
miR-21 reporter: -6%; TrxR1 substrate: 5%; TrxR1 inh: 14%; Anesthetic bind: -1%; ClpP mod: 25µM*

What do the screens show for `Cc1nonc1C(=O)N/N=C/c1ccc(O)c(O)c1`?
miR-21 reporter: -59%; TrxR1 substrate: -7%; TrxR1 inh: -2%; Anesthetic bind: 4%; ClpP mod: 28µM*

What do the screens show for `COc1cccc(NC(=O)CN(C)C(=O)C(Sc2ccccc2)c2ccccc2)c1` (configuration not stated)?
TrxR1 substrate: -2%[57.1 µM]; TrxR1 inh: -2%[57.1 µM]; ClpP mod: 28µM*

What do the screens show for `COc1cccc(NC(=O)CN(C)C(=O)Cc2cccc3ccccc23)c1`?
TrxR1 substrate: 6%; TrxR1 inh: 7%; ClpP mod: -1%

Results for Cn1c(N)c(C#N)c(C#N)c1-c1ccccc1 ?
miR-21 reporter: -2%; TrxR1 substrate: 9%[57.1 µM]; TrxR1 inh: 18%[57.1 µM]; Anesthetic bind: -4%; ClpP mod: -30%

Results for N#Cc1c(C#N)c(-c2ccccc2)n(-c2ccccc2)c1N ?
miR-21 reporter: -20%; TrxR1 substrate: 41%[57.1 µM]; TrxR1 inh: 23%[57.1 µM]; Anesthetic bind: -15%; ClpP mod: 28µM*

Three compounds out of the list, sorted by SMILES length, low to high:
Results for Cn1c(N)c(C#N)c(C#N)c1-c1ccccc1 ?
miR-21 reporter: -2%; TrxR1 substrate: 9%[57.1 µM]; TrxR1 inh: 18%[57.1 µM]; Anesthetic bind: -4%; ClpP mod: -30%

How did CC(=O)Nc1ccc(-c2cc(-c3ccccc3)nc(-c3ccccc3)n2)cc1 do in these assays?
miR-21 reporter: -5%; TrxR1 substrate: -7%; TrxR1 inh: 7%[57.1 µM]; Anesthetic bind: -1%; ClpP mod: 28µM*

Results for CCC(=O)Nc1ccc(-c2cc(-c3ccccc3)nc(-c3ccc(NC(=O)CC)cc3)n2)cc1 ?
miR-21 reporter: -5%; TrxR1 substrate: 23%; TrxR1 inh: 5%; Anesthetic bind: -14%; ClpP mod: inconclusive
